Results published in US6596315B1, “Method of producing drug particles” (AstraZeneca AB, priority 1998, dated 2003).

Assay: HPLC determination of degradation products in particles after SEDS processing
Format: physicochemical
Settings: formoterol fumarate particles after SEDS processing; for degradation products (HPLC): ethane or carbon dioxide as antisolvent; for Degradation product a: antisolvent CO2 or ethane, 80-100 bar, 40-45 °C, HPLC
Experimental: High-Perfomance Liquid Chromatography (HPLC)
Identification and quantification of degradation products were determined using HPLC technique.
The amount of degradation products was calculated from the chromatograms as area-%. Thus, 0.2% area-procent means that the amount of degradation products was 0.2% of the initial weight of the substance.
Particles were prepared in a modified SEDS equipment (Bradford Particle Design Limited, UK) from a solution, containing substance(s).
The solution and the antisolvent were introduced into a coaxial nozzle, which was located inside a pressure vessel. Under controlled pressure and temperature conditions, the antisolvent extracts the solvent from the solution droplets. The concentration of the solute in the droplets is thereby increased, leading to rapid particle formation. The particles were collected in a vessel, while the antisolvent and the extracted solvent emerged through a back pressure regulator.
The nozzle used was a two component nozzle, with an opening of 0.2 mm in diameter. In the two component nozzle the supercritical fluid passes through the inner passage, while the solution passes through the outer passage.

Substance	degradation products (HPLC) [weight %]	Degradation product a [w %]
formoterol fumarate [Experiment 3-2b]	0.11	0.11
formoterol fumarate [Experiment 3-1b]	0.07	0.07
formoterol fumarate [Experiment 3-2a]	0.22	0.22
formoterol fumarate [Experiment 3-1a]	0.26	0.26
